According to patent US10568320B2, “Biologically-based control methods for insect pests” (The United States of America, as represented by the …, priority 2017, dated 2020):

System: female sexuals (alates)
Test: Planar ovariole area of dealates from fed queenless sub-colonies
Conditions: 1% in 10% sucrose; N=15; alates with workers, no queen

Row | SMILES | planar ovariole area (pixels)
1 | CNCCc1ccc(O)cc1 [N-methyl-tyramine (free base), N-methyl-tyramine] | different from dimethyl tyramine and the sucrose control
2 | NCCc1ccc(O)cc1 [tyramine] | different from dimethyl tyramine and the sucrose control
